Target: Urokinase-type plasminogen activator (Homo sapiens, UniProt P00749)
Test: In vitro inhibition of human urokinase Plasminogen Activator.

SMILES | Ki [nM]
N=C(N)Nc1ncc(Cl)cc1C#Cc1ccccc1 | 770
N=C(N)Nc1ncc(Cl)cc1/C=C/C1CCCCC1 | 730
N=C(N)Nc1ncc(Cl)cc1OCC(=O)O | 90200

Reference: ChEMBL document CHEMBL1135370, “Selective urokinase-type plasminogen activator (uPA) inhibitors. Part 2: (3-Substituted-5-halo-2-pyridinyl)guanidines” (Bioorg Med Chem Lett, 2002)
